Results from PMC10005967 (Molecular Psychiatry, 2022).

The chains behind the UniProt entries cited, without tags or fusion partners. Residues count along the entry.
UniProt P10636, 561-697 limits assumed: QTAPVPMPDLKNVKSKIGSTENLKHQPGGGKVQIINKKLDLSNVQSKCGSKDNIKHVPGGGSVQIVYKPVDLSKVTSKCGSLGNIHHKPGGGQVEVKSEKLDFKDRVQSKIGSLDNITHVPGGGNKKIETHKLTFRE
UniProt P10636, 561-698 limits assumed: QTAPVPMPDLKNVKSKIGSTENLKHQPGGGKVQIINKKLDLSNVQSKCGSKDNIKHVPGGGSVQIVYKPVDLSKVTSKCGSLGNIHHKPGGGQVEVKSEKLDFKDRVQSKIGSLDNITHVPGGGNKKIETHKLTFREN
UniProt P10636, 623-708 limits assumed: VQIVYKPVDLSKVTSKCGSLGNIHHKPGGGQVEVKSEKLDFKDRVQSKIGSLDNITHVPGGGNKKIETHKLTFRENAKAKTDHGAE
UniProt P10636, 623-695 limits assumed: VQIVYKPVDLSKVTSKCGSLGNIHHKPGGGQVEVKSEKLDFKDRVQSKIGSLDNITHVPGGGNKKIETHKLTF

Experiments:
[1] = molecular target: tau, AD FC brain homogenates (Homo sapiens, UniProt P10636); test: ^3H-PI2620 saturation binding assay in AD frontal cortex brain homogenates; conditions: tested as the radiolabelled form
[2] = molecular target: tau, CBD FC brain homogenates (Homo sapiens, UniProt P10636); test: ^3H-PI2620 saturation binding assay in CBD frontal cortex brain homogenates; conditions: tested as the radiolabelled form
[3] = molecular target: tau, PSP FC brain homogenates (Homo sapiens, UniProt P10636); test: ^3H-PI2620 saturation binding assay in PSP frontal cortex brain homogenates; conditions: tested as the radiolabelled form
[4] = molecular target: tau, small frozen FC sections from CBD cases (Homo sapiens, UniProt P10636); test: Small frozen FC section autoradiography, CBD cases; conditions: tested as the radiolabelled form; for NSP binding: 1 nM tracer + 1 μM unlabelled
[5] = molecular target: tau, small frozen FC sections from PSP cases (Homo sapiens, UniProt P10636); test: Small frozen FC section autoradiography, PSP cases; conditions: tested as the radiolabelled form; for NSP binding: 1 nM tracer + 1 μM unlabelled
[6] = system: tau, homogenates from different regions of AD and control brains; test: ^3H-PI2620 brain regional binding studies in AD and control brain homogenates; conditions: tested as the radiolabelled form
[7] = molecular target: tau, large frozen hemispherical brain sections from AD case A (Homo sapiens, UniProt P10636); test: Large frozen adjacent hemispherical brain section autoradiography, sporadic AD case A; conditions: tested as the radiolabelled form
[8] = system: tau, post-mortem PSP brain tissue; conditions: PSP frontal cortex (FC); tested as the radiolabelled form; cited from earlier work

SMILES: Fc1cc(-c2ccc3c(n2)[nH]c2ccncc23)ccn1 [PI2620]
- Bmax2 ([1]; AD FC homogenates, saturation): 69 fmol/mg
- Bmax1 ([1]; AD FC homogenates, second binding site, Scatchard plot manually drawn): 30 fmol/mg
- specific binding values ([1]; AD brains, saturation and regional distribution binding assays in homogenates): < 70 fmol/mg
- specific binding in AD brain tissue, fold higher than in CBD ([1]; FC homogenates): 2.5 fold
- specific binding in AD brain tissue, fold higher than in PSP ([1]; FC homogenates): 6.5 fold
- pKd ([1]; read-out: Kd1, AD FC homogenates, second binding site, Scatchard plot manually drawn): 9.70
- pKd ([1]; read-out: Kd2, AD FC homogenates, saturation): 9.15
- Bmax2 ([2]; CBD FC homogenates, saturation): 32 fmol/mg
- Bmax1 ([2]; CBD FC homogenates, second binding site from Scatchard plot): 8.0 fmol/mg and 8 fmol/mg
- specific binding values ([2]; CBD brains, binding assays in homogenates): < 30 fmol/mg
- Bmax in CBD brain tissue, fold lower than in AD brain tissue ([2]; FC homogenates): 2 fold
- Bmax in CBD, fold higher than in PSP brain tissue ([2]; FC homogenates): 2.6 fold
- pKd ([2]; read-out: Kd1, CBD FC homogenates, second binding site from Scatchard plot): 10.00
- pKd ([2]; read-out: Kd2, CBD FC homogenates, saturation): 8.92
- Bmax in PSP, fold lower than in AD brain tissue ([3]; FC homogenates): 6 fold
- Bmax ([3]; PSP FC homogenates, one binding site): 12 fmol/mg
- specific binding values ([3]; PSP brains, binding assays in homogenates): < 10 fmol/mg
- visual assessment of total versus NSP binding ([4]; CBD and PSP small frozen FC sections): significantly more intense for total than for NSP binding
- specific binding values in small sections, fold higher than in brain homogenates ([4]; CBD): ~ 3.1 fold
- NSP binding ([4]; case CBD 20): 19.9 fmol/mg
- Specific binding ([4]; case CBD 20, 1 nM tracer): 27.6 fmol/mg
- Specific binding (%) ([4]; case CBD 20, 1 nM tracer): 58% and 58.1%
- TOTAL binding ([4]; case CBD 20, 1 nM tracer): 47.6 fmol/mg
- NSP binding ([4]; case CBD 22): 16.5 fmol/mg
- Specific binding ([4]; case CBD 22, 1 nM tracer): 54.9 fmol/mg
- Specific binding (%) ([4]; case CBD 22, 1 nM tracer): 77% and 76.9%
- TOTAL binding ([4]; case CBD 22, 1 nM tracer): 71.3 fmol/mg
- NSP binding ([4]; case CBD 23): 25.3 fmol/mg
- Specific binding ([4]; case CBD 23, 1 nM tracer): 62.3 fmol/mg
- Specific binding (%) ([4]; case CBD 23, 1 nM tracer): 71% and 71.1%
- TOTAL binding ([4]; case CBD 23, 1 nM tracer): 87.6 fmol/mg
- specific binding (%) over the CBD cases ([4]; three CBD cases, 1 nM tracer): 58-77%
- specific binding values in small sections, fold higher than in brain homogenates ([5]; PSP): 2.9 fold
- NSP binding ([5]; case PSP 27): 12.3 fmol/mg
- Specific binding ([5]; case PSP 27, 1 nM tracer): 34.9 fmol/mg
- Specific binding (%) ([5]; case PSP 27, 1 nM tracer): 73% and 73.9%
- TOTAL binding ([5]; case PSP 27, 1 nM tracer): 47.2 fmol/mg
- NSP binding ([5]; case PSP 28): 26.0 fmol/mg
- Specific binding ([5]; case PSP 28, 1 nM tracer): 20.3 fmol/mg
- Specific binding (%) ([5]; case PSP 28, 1 nM tracer): 44% and 43.9%
- TOTAL binding ([5]; case PSP 28, 1 nM tracer): 46.3 fmol/mg
- specific binding (%) over the PSP cases ([5]; two PSP cases, 1 nM tracer): 44-73%
- regional binding distribution rank order ([6]; AD brains): FC > TC > PC > hippocampus
- specific binding in EOAD brains compared to LOAD brains ([6]; FC (p < 0.001), PC and TC (p < 0.01), 0.6 nM): significantly higher
- binding in LOAD brains compared to controls ([6]; FC (p = 0.02) and TC (p < 0.01), 0.6 nM): significantly higher
- specific binding in AD brains compared to control brains ([6]; FC and TC (p < 0.001), 0.6 nM): significantly higher
- binding in EOAD brains compared to control brains ([6]; all cortical regions (p < 0.001) and hippocampus (p < 0.01), 0.6 nM): significantly higher
- binding in AD versus control brains ([6]; cerebellum, 0.6 nM): No significant differences
- specific binding in AD brains compared to control brains ([6]; hippocampus (p = 0.02), 0.6 nM): significantly higher
- binding in the entorhinal cortex (EC), qualitative/visual ([7]; all EC layers): less intense and more diffuse
- binding in the hippocampal (HIPP) CA1 region, qualitative ([7]; compared to ^3H-MK6240 and ^3H-RO948): qualitatively less binding
- in vitro binding using autoradiography [8]: no in vitro binding

pKd: −log10 of the molar value. Values joined by “and” are separate entries in the source; they are usually repeats but may differ in a detail not shown here. Equal entries are not always repeated. Where two headings read alike, the source gives them in different places.
